The assay has as its target T1, human CCR2 (Homo sapiens, UniProt P41597).
T1 sequence (P41597 1-360 isoform P41597-2): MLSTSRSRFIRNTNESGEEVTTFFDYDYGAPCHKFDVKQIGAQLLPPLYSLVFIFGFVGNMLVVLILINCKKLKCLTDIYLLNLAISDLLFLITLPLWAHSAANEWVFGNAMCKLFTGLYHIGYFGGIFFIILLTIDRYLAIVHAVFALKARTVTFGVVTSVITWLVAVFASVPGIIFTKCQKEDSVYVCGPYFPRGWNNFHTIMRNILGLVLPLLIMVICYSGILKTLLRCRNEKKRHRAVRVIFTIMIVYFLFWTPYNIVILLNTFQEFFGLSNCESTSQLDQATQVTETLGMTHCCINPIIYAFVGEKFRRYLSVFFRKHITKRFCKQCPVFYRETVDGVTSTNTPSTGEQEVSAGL
The assay is described as follows: CCR2 chemotaxis (MCP-1-induced, THP-1 cells). The assay is classed as cell-based. More on the design: hPBMCs were isolated from human leukopak (Biological Specialty Inc.); endogenous in cells; host or cells: human peripheral blood mononuclear cells from leukopak (Biological Specialty Inc.). How it is done: The human CCR2 chemotaxis assay was conducted with the human monocytic cell line, THP-1. THP-1 cells were first labeled with the fluorescent dye Calcein-AM in phenol red-free, BSA-free RPMI-1640 (pH 7.4) at 37° C. for 30 minutes with gentle mixing every 15 minutes. The labeled cells were then washed and re-suspended at 1×10^5/ml in chemotaxis buffer (phenol red-free RPMI-1640, 0.1% BSA, pH 7.4). The test compound was diluted in chemotaxis buffer such that the final assay concentration ranged from 0.01 nM to 1 μM. […] To perform the assay, an equal volume of test compound dilutions was mixed with an equal volume of labeled THP-1 cells (Mixture 1), and an equal volume of test compound dilutions was mixed with an equal volume of diluted MCP-1 ligand (Mixture 2). Both mixtures were incubated independently at 37° C. for 10 minutes followed by gentle mixing. MCP-1-induced chemotaxis was then measured in a chemotaxis plate (Becton Dickinson) by placing 50 μl of Mixture 1 in the top chamber and 225 μl of Mixture 2 in the bottom chamber. The plate was covered with a lid and incubated at 37° C. for 30 minutes. 30 minutes later, the plate was read on a Cytofluor. All conditions were tested in duplicate. […] The inhibition achieved by graded concentrations of test compound was calculated as a percentage of the compound-free MCP-1 control.

Regarding `CN[C@@H]1CC[C@H](N2CC[C@H](Nc3ncnc4ccc(C(F)(F)F)cc34)C2=O)[C@H](NC(C)=O)C1` [Example 3, N-((1R,2S,5R)-5-(methylamino)-2-((3S)-2-oxo-3-((6-(trifluoromethyl)-4-quinazolinyl)amino)-1-pyrrolidinyl)cyclohexyl)acetamide], the half-maximal inhibitory concentration (IC50) stood at 2.2 ± 1.59 nM.

As a reminder, the IC50 is the concentration at which inhibition is half-maximal. Lower therefore signals greater potency.

The values above are taken from patent US7687508B2, “Cyclic derivatives as modulators of chemokine receptor activity” (Bristol-Myers Squibb Company, priority 2006, dated 2010).
